The values that follow are results of earlier work, collected in PMC7198388, “Radiohybrid Ligands: A Novel Tracer Concept Exemplified by ^18F- or ^68Ga-Labeled rhPSMA Inhibitors” (Journal of Nuclear Medicine, 2020).

The structures appear in SMILES notation.

For the series, the system named is LNCaP tumor-bearing male CB-17 SCID mice. The following applies: 1 h p.i., mean ± SD, n = 4, cited from earlier work.

As to `O=C(O)CC[C@H](NC(=O)N[C@@H](CCCCNC(=O)[C@H](Cc1ccc2ccccc2c1)NC(=O)c1ccc(CNC(=O)[C@H](CCC(=O)O)NC(=O)[C@H](CCC(=O)O)NC(=O)c2ccc(F)nc2)cc1)C(=O)O)C(=O)O`, the “Biodistribution, Adrenals” value is recorded as 7.5 ± 3.4 %ID/g; the “Biodistribution, Blood” value was 0.48 ± 0.29 %ID/g; the “Biodistribution, Bone” value is on record as 0.89 ± 0.67 %ID/g; the “Biodistribution, Heart” value was 1.4 ± 0.5 %ID/g. The “Biodistribution, Intestine” value is 1.1 ± 0.3 %ID/g; the “Biodistribution, Kidneys” value is on record as 123.3 ± 52.1 %ID/g; the “Biodistribution, Liver” value is recorded as 1.2 ± 0.5 %ID/g; the “Biodistribution, Lung” value was 1.8 ± 1.0 %ID/g. Further, the “Biodistribution, Muscle” value is recorded as 0.64 ± 0.41 %ID/g; the “Biodistribution, Pancreas” value is 1.4 ± 0.7 %ID/g; the “Biodistribution, Spleen” value is given as 16.68 ± 5.09 %ID/g; the “Biodistribution, Stomach” value is listed as 0.96 ± 0.86 %ID/g. In addition, the “Biodistribution, Tumor” value (LNCaP tumor) is 7.4 ± 0.7 %ID/g.
